Results reported in article PMC2603005, “Structural insights into phenylethanolamines high-affinity binding site in NR2B from binding and molecular modeling studies” (Molecular Brain, 2008).

Protein sequences, listed by entry. Tags and fused reporters are not part of them. Residues count along the entry.
UniProt Q00960, 27-393: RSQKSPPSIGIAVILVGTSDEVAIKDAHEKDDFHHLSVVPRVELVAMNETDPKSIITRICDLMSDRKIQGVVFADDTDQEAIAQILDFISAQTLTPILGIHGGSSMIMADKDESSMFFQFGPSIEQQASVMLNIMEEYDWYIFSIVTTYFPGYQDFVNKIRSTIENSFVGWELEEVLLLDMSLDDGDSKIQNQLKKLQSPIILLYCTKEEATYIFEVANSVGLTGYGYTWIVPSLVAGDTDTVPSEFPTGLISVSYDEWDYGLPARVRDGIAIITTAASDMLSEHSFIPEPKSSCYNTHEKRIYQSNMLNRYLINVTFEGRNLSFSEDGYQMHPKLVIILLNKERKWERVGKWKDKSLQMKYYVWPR

Target: 6 × His-ATD2B (amino-terminal domain of NR2B subunit), wild type (Rattus norvegicus, UniProt Q00960)

C[C@@H](CN1CCC(Cc2ccccc2)CC1)[C@@H](O)c1ccc(O)cc1 [RO25,6981]
Ratio of KD(ifenprodil) to KD(RO25,6981): ~ 9 fold
